Source: patent publication US5298614A, “Size limited double stranded poly I poly(cytidylate/4-thiouridylate)” (Nippon Shinyaku Co. Ltd., priority 1986, dated 1994)
Marks after values point to notes of the source that are not given here.

Tested on: interleukin 2 (lymph particles from spleen cells of BALB/c mice)
Assay: Inducing activity of interleukin 2, 3H-thymidine incorporation with CTLL-2 or NK-7
Type: cell-based
Settings: samples 100α/ml; interleukin 2 5 units/ml; saline control 230

Interleukin 2: Interleukin 2
Incorporated Amount: 3578 DPM (× 10^3)
